Screening results: PubChem BioAssay, Broad Institute
CFTR F508del cor = CFTR F508del correction in bronchial cells | activity (quench increase), % at 7.58 µM | 350,000 tested, 0.36% active | AID 720511 | CFBE cells, YFP halide quenching; stimulated with forskolin plus potentiator P3; % fluorescence drop versus neutral controls;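 active = mean added fluorescence quench of at least 8% versus neutral control, with both replicates also reaching 8%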;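 also: cells transiently co-express mutant CFTR-F508del with the halide-sensitive YFP; corrector assay measuring rescue of mutant channel to the surface after 24 h compound exposure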
UUG fidelity = alters start codon recognition fidelity in yeast | S. cerevisiae UUG-firefly luciferase reporter, luminescence/redox ratio | activity score, % at 18.7 µM | hit rate 0.13% among 350,000 | AID 602363;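 active means replicate mean at a twofold rise or more, about +100% in these data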;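 further: firefly luciferase made from a UUG start codon reports start codon fidelity; reporter light over untreated wells divided by growth signal over untreated wells; some hits fall short of that in this replicate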
miR122 inh = inhibitors of miR-122 in Huh7 cells | Huh7 miR-122 Renilla luciferase sensor, 48 h; neutral wells = 0, positive control = 100 | activation (reporter increase), % at 12.5 µM | 340,000 tested, 0.3% active;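 active = mean replicate activation score at least 90 and every replicate individually at or above 90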;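 also: higher luciferase means less miR-122 activity so hits act as miR-122 inhibitors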
LGR2 inh = blocks bursicon-induced cAMP signaling via Drosophila LGR2 | HEK293 LGR2, CRE-luciferase, bursicon-stimulated, 4 h | inhibition, % at 9.99 µM | 380,000 tested, 0.35% active | AID 720647;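 active = drop in luminescence signal, shown as inhibition above about 50% in the replicate tests, limit read from the data, passing the limit was not always enough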;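 also: agonist challenge used bursicon conditioned medium at about half maximal strength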
EWS-Fli inh = blocks EWS/Fli oncoprotein-driven transcription; A673 NR0B1-luciferase reporter, viability-normalised; inhibition, % at 12.6 µM; 350,000 tested, 0.67% active;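 active = mean inhibition of at least 50% after viability correction, with every replicate also passing that limit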;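 also: firefly luciferase signal divided by Alamar Blue viability fluorescence both relative to DMSO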
PglD inh = PglD (C. jejuni) enzyme inhibition | inhibition, % at 12.5 µM | purified PglD enzyme, DTNB colorimetric CoA detection | 360,000 tested, 0.098% active; in the data active = inhibition above about 16%, passing the limit was not always enough
DNA binding = small molecule DNA binding by fluorescence polarization; shares compounds with EWS-Fli inh; salmon sperm DNA acridine orange fluorescence polarization; AC35, µM (series often up to 68 µM), without a hit: top-dose activity change, negative = DNA binding; 640 tested, 2% active; AID 720586;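 active = fitted curve reaches a 35% signal fall AC35 below twice the sample's top valid tested dose, actives reach about 48 µM in these data; inactive = the rest, including activity in the rising direction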;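 also: lower polarization ratio signals compound binding to DNA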
Numbers without * were called inactive; / = no result; [ ] = another dose, or the depositor's remark. This is a sample that favours compounds with a hit; in the whole collection about 1.3% have one here.

1. COc1ccc(Cl)cc1NC(=O)Cn1nnc(C(=O)NCc2ccc3c(c2)OCO3)c1N
2. COc1ccccc1NC(=O)N1CCCCN2[C@H](CO)[C@H](c3ccc(-c4cccc(C)c4)cc3)[C@H]2C1
3. COc1ccc(NC(=O)N2CCCCN3[C@H](CO)[C@H](c4ccc(C#CCC(C)C)cc4)[C@H]3C2)cc1
4. COc1ccccc1NC(=O)N1CCCCN2[C@H](CO)[C@H](c3ccc(-c4ccc(C)cc4)cc3)[C@@H]2C1
5. O=C(Nc1ccccc1F)N1CCCCN2[C@H](CO)[C@H](c3ccc(/C=C/c4ccccc4)cc3)[C@H]2C1
6. Cc1onc(-c2ccccc2)c1C(=O)Nc1sccc1C#N
7. Cc1ccsc1C(=O)OCC(=O)c1cc(C)n(C)c1C
8. Cc1cc(C(=O)COC(=O)c2nccnc2N)c(C)n1C
9. CC1(C(=O)O)CCCN1C(=O)c1ccco1 (configuration not stated)

Assay by compound | 1 | 2 | 3 | 4 | 5 | 6 | 7 | 8 | 9
CFTR F508del cor | 5 | 1 | -1 | 3 | -4 | 0 | -1 | / | 1
UUG fidelity | -16 | 10 | 12 | 14 | 4 | -14 | -36 | -51 | -18
miR122 inh | -10 | -23[16.7 µM] | -34[16.7 µM] | -8[16.7 µM] | -18[16.7 µM] | 0 | 1 | -8 | -2
LGR2 inh | 2 | 21 | 3 | 12 | 4 | 6 | 71* | 35 | 1
EWS-Fli inh | / | 61* | 73* | 9 | 76* | 12 | 63* | -33 | 0
PglD inh | -3 | 0 | 8 | 1 | 4 | 2 | 3 | -4 | 5
DNA binding | / | -6% | -2% | / | -8% | / | -11% | / | /

Results in sequence from above.
CFTR F508del cor for entries 1–9, in order: 5, 1, -1, 3, -4, 0, -1, /, 1
UUG fidelity for entries 1–9, in order: -16, 10, 12, 14, 4, -14, -36, -51, -18
miR122 inh for entries 1–9, in order: -10, -23[16.7 µM], -34[16.7 µM], -8[16.7 µM], -18[16.7 µM], 0, 1, -8, -2
